# Laboratory results as given in EP3771713A1 (dated 2021).
# The chains behind the UniProt entries cited, without tags or fusion partners.
# UniProt P21554, whole entry: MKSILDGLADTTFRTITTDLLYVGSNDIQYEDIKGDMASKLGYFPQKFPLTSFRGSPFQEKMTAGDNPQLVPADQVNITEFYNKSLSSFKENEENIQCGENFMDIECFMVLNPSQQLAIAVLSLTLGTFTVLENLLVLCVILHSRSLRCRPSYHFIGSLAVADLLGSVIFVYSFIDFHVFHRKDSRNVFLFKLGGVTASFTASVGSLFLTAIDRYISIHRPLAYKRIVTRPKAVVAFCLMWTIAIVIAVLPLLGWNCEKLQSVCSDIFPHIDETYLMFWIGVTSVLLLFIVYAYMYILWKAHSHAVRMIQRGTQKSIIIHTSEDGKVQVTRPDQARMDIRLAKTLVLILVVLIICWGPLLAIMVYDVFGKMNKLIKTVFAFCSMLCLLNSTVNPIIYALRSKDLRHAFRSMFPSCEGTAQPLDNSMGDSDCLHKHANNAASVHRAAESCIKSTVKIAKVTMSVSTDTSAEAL
# Like-named read-outs stand apart in the source and are kept apart here.
# How the values were obtained:
# hCB1R [1] = molecular target: T1, hCB1R (Homo sapiens, UniProt P21554); test: biochemical; format: binding
# hCB1R [2] = molecular target: T1, hCB1R; conditions: read-out: Ki hCB1R (value with reference superscript); cited from earlier work
compound,measurement,setting,value
"Cc1ccc(Cn2nc(C(=O)NC3C4(C)CCC(C4)C3(C)C)cc2-c2ccc(Cl)c(C)c2)cc1 (stereo not drawn) [SR-144,528, reference compound]",Ki,hCB1R [1],794 nM
same,Ki,hCB1R [1]; Ki hCB1R,687 nM
same,Ki,hCB1R [2],264 nM
